The values below are quoted from earlier work in US20130142868A1 (priority 2010, published 2013).

For the data set the following is noted: in vivo; cited from earlier work.

Turning to “Interferon β: protein of a cited intranasal study (Thorne et al., 2008)”, the blood levels entry was “with low blood” and the “levels of protein in most brain regions” value is “effective levels of”.
